Assay results as given in patent US8138187B2, “Substituted heteroaryl derivatives” (Gruenenthal GmbH, priority 2006, dated 2012).

Sequences of proteins named here, by UniProt entry; tags and fusion partners are left off.
UniProt P35372, whole entry: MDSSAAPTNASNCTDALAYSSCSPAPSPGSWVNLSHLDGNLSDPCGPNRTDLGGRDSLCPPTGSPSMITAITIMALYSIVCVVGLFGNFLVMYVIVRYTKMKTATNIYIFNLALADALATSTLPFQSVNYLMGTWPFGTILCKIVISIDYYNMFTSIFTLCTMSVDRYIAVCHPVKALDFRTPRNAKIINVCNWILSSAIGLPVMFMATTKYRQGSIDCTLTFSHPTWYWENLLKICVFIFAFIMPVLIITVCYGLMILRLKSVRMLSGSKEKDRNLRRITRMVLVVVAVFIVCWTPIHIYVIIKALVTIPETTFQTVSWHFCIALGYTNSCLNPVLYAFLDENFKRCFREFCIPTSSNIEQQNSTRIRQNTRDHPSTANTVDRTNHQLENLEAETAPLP
UniProt P41146, whole entry: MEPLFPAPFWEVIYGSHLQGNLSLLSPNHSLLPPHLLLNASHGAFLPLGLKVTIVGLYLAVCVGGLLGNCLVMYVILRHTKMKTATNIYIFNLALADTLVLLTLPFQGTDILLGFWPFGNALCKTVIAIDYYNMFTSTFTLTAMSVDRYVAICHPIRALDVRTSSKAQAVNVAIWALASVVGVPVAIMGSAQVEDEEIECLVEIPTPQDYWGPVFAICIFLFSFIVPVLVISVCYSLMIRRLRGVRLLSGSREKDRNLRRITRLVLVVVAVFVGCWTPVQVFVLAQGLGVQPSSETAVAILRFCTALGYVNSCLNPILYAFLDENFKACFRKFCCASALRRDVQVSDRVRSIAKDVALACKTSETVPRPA

Legend:
human μ opiate receptor = human μ opiate receptor (Homo sapiens, UniProt P35372); assay: μ binding, displacement of [3H]-naloxone; settings: read-out: Ki [μM] (μ); CHO-K1 membranes expressing human μ opiate receptor; Cheng-Prusoff
ORL1 receptor = ORL1 receptor (Homo sapiens, UniProt P41146); assay: ORL1 receptor binding assay with 3H-nociceptin/orphanin FQ; settings: 1 μM test compound; membranes from recombinant CHO-ORL1 cells
Experimental: Measurement of the ORL1 Binding
The compounds according to the invention were investigated in a receptor binding assay with ^3H-nociceptin/orphanin FQ with membranes from recombinant CHO-ORL1 cells. This test system was conducted in accordance with the method described by Ardati et al. (Mol. Pharmacol., 51, 1997, S. 816-824). The concentration of ^3H-nociceptin/orphanin FQ in these experiments was 0.5 nM. The binding assays were carried out with in each case 20 μg of membrane protein per 200 μl batch in 50 mM hepes, pH 7.4, 10 mM MgCl2 and 1 mM EDTA. The binding to the ORL1 receptor was determined using in each case 1 mg of WGA-SPA beads (Amersham-Pharmacia, Freiburg) by incubation of the batch at RT for one hour and subsequent measurement in a Trilux scintillation counter (Wallac, Finland). The affinity is stated in Table 1 as the nanomolar Ki value in or % inhibition at c=1 μM.

In the case of CN1CCN(CCc2c(C3CCC(c4ccccc4)(N(C)C)CC3)[nH]c3ccccc23)CC1 (centres unmarked), the Ki (human μ opiate receptor) is reported as 0.0003 µM and the “% inhibition (ORL1) at 1 μM” value (ORL1 receptor) is reported as 99%.
